scFv variants of Ab-91 (heavy chain) against a SARS-CoV-2 spike peptide

Values reported by Engelhart et al. 2022, doi:10.1038/s41597-022-01779-4 (FLAb copy).

Target peptide (SARS-CoV-2 spike, HR2 region): PDVDLGDISGINAS

Ab-91 is the parent antibody, in scFv form: VL, then a (GGGGS)3 linker, then VH. The light chain is unchanged in all variants.
VL: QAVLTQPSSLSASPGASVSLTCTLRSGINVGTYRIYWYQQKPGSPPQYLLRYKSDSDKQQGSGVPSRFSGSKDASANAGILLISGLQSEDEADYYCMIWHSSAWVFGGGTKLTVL
VH: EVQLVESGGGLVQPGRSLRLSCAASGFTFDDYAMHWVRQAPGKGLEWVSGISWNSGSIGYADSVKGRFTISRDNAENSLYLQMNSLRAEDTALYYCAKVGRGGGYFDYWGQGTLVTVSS

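Phage display of a naive human antibody library on the peptide gave the parent. In library AAYL51, one, two or three CDR residues were substituted; doubles and triples were drawn at random. In AlphaSeq, yeast of one mating type display the scFv and yeast of the other type display the target. After mating in shaken culture at 30 °C for 16 h, diploids were selected and their barcode pairs sequenced. Each replicate has its own calibration line, from reference interactions of the BCL2 family. Each pool was mated in three replicate cultures.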

Each variant is given by its three heavy chain CDRs, as the data file delimits them; those of the parent are GFTFDDYAMH, GISWNSGSIGYADSVK, VGRGGGYFDY.
The read-out is the apparent dissociation constant on a log10 scale (nM): the lower, the stronger.
Replicates are averaged; those with no signal do not enter the mean.
"n.d." marks a missing value. The strain was present, yet no cells mated with the target were sequenced in that replicate, which points to weak or no binding.
Nonspecific signal, from three strains lacking the peptide, appeared in 21% of pairings of library AAYL51, centred on 4.54 (5% of these signals below 3.26); values are not corrected for it. Also given: how often the same scFv was detected with the empty control strains, with their mean in brackets.

| # | CDR-H1 | CDR-H2 | CDR-H3 | log10 Kd, replicates | mean log10 Kd (nM) | signal with controls |
|---|---|---|---|---|---|---|
| 1 | GRTFDHYAMH | GISWNSGSIGYADSVK | VGRGGQYFDY | n.d. n.d. n.d. | n.d. | 1 of 9 (3.89) |
| 2 | GFTNDDYAMM | GISWNSGSIGYADSVK | VGRGGGYFDY | 4.46 n.d. n.d. | 4.46 | 3 of 9 (4.76) |
| 3 | GFTLDYYAMH | GISWNSGSIGYADSVK | VGRGPGYFDY | n.d. n.d. n.d. | n.d. | 0 of 9 |
| 4 | GFTFDDYAMH | GISWNSGSIGYADSVK | VGRGGGYTDY | 4.04 4.19 5.21 | 4.48 | 3 of 9 (4.54) |
| 5 | GFTFDDYHMH | QISWQSGSIGYADSVK | VGRGGGYFDY | n.d. n.d. n.d. | n.d. | 0 of 9 |
| 6 | GFTFDDYAMH | GKSWNSGSIGLEDSVK | VGRGGGYFDY | n.d. n.d. n.d. | n.d. | 0 of 9 |
| 7 | GFTFDDYAMH | GISWGSGSIGYADDVK | VGRGGGYFDY | n.d. 4.36 3.17 | 3.76 | 3 of 9 (4.17) |
| 8 | GIHPDDYAMH | GISWNSGSIGYADSVK | VGRGGGYFDY | n.d. n.d. n.d. | n.d. | 0 of 9 |
| 9 | FFTFDDYAMH | GISWNTGSIGYAFSVK | VGRGGGYFDY | n.d. n.d. n.d. | n.d. | 0 of 9 |
| 10 | GKTFDDYAMH | GISWNIGSIGYADSVK | VGRGGRYFDY | n.d. n.d. n.d. | n.d. | 0 of 9 |
| 11 | GFTFDDYAMH | GIVWNSHSIGYADAVK | VGRGGGYFDY | n.d. 4.81 n.d. | 4.81 | 2 of 9 (3.95) |
| 12 | GFTFFDYAYH | GISWNSGSIGYADSVK | VGRGMGYFDY | n.d. n.d. n.d. | n.d. | 0 of 9 |
| 13 | YFTFDDYAMH | SISWNSGSIGYADSVK | VGRGGGYFDY | 4.17 n.d. 4.33 | 4.25 | 5 of 9 (4.11) |
| 14 | GMTFDDYAMH | GIKWNSGSIGYADSVK | VGRGGGEFDY | n.d. n.d. n.d. | n.d. | 2 of 9 (4.12) |
| 15 | GFTFDDYAMF | GISWNSGSIGYAHHVK | VGRGGGYFDY | n.d. n.d. n.d. | n.d. | 0 of 9 |
| 16 | GFTFCDYAMH | GISWESGSIGYADSVK | VGRVGGYFDY | n.d. n.d. 4.48 | 4.48 | 0 of 9 |
| 17 | GFTFDDYAMH | GISWNSGSIGYADSVK | VGHGIGYFDY | n.d. n.d. n.d. | n.d. | 0 of 9 |
| 18 | GFTFDDYAMH | GISWNSGSIGCADSVK | VGRGGGYSDY | n.d. n.d. n.d. | n.d. | 2 of 9 (4.28) |
| 19 | GFGFDDQAMH | GISWDSGSIGYADSVK | VGRGGGYFDY | n.d. 3.90 n.d. | 3.90 | 1 of 9 (4.29) |
| 20 | GFTFPDYAMH | QISWESGSIGYADSVK | VGRGGGYFDY | n.d. n.d. n.d. | n.d. | 0 of 9 |
| 21 | GFTFDDYAMH | GISWNSGSIGYADSVK | AGRGGTYFDC | n.d. n.d. n.d. | n.d. | 1 of 9 (3.02) |
| 22 | GFTFDDYAMH | GISWNSGSIGYKDSVH | VGRHGGYFDY | n.d. n.d. n.d. | n.d. | 2 of 9 (4.33) |
| 23 | GFTFDDYAMH | GISWNSGSQGYADSVK | VGRGGWYYDY | 1.97 1.98 1.68 | 1.87 | 7 of 9 (4.72) |
| 24 | GFTFDDYAMH | GIPPNSGEIGYADSVK | VGRGGGYFDY | 5.38 n.d. n.d. | 5.38 | 1 of 9 (4.11) |
| 25 | GFTFDDHAMH | GISWNSGSIGYADSVK | VGRKGGQFDY | n.d. 4.34 n.d. | 4.34 | 2 of 9 (3.75) |
| 26 | DFTFDDYAMH | GISWNSGSIGYADSVK | VLRGGGYFDQ | n.d. n.d. n.d. | n.d. | 0 of 9 |
| 27 | GFTFDDYAMH | GISYNSGSDGYADSVK | VGRGGGYFDA | 1.93 2.22 2.38 | 2.18 | 1 of 9 (3.48) |
| 28 | GFTFDDVAMH | GISWNSGSIGIAQSVK | VGRGGGYFDY | n.d. 3.81 6.05 | 4.93 | 8 of 9 (5.29) |
| 29 | GFTVDDYAMH | GISWNSGSIGYADSVK | VGRDGGFFDY | n.d. n.d. n.d. | n.d. | 0 of 9 |
| 30 | GFTCGDYAMH | GISWNSGSIGYADSVK | VGRGGMYFDY | 4.05 n.d. n.d. | 4.05 | 0 of 9 |
| 31 | GFTFDDWAMH | GICWNSGSIGYADSVK | VGRGVGYFDY | 4.59 n.d. n.d. | 4.59 | 0 of 9 |
| 32 | GFTFDDYAMH | GISWNSGSIGYADSEK | VGYGGGYFDG | n.d. n.d. n.d. | n.d. | 1 of 9 (4.76) |
| 33 | GFTFDDYAMD | QISWNSGSIGYAMSVK | VGRGGGYFDY | 3.36 n.d. n.d. | 3.36 | 1 of 9 (4.13) |
| 34 | IFTFDDYAMH | GISWNSGSINYADSVK | VGRGGGYMDY | n.d. n.d. n.d. | n.d. | 1 of 9 (4.21) |
| 35 | GFTKDDYAMH | GISWNSGPIGYADSVK | DGRGGGYFDY | 3.25 n.d. n.d. | 3.25 | 2 of 9 (3.99) |
| 36 | GFTFDDYAMH | GISWNSYSKGYADSVK | VGRGGGYFTY | 2.78 2.67 2.43 | 2.62 | 5 of 9 (4.89) |
| 37 | GFVFDDYANH | GISWNCGSIGYADSVK | VGRGGGYFDY | n.d. n.d. n.d. | n.d. | 0 of 9 |
| 38 | GITFDDYAMH | GISWNSGSIKYADSVK | VGWGGGYFDY | n.d. 5.81 n.d. | 5.81 | 1 of 9 (4.91) |
| 39 | GFTFDDYAMH | GRSWNSGSIGYADSVK | VVRGGGMFDY | 4.82 n.d. 4.95 | 4.89 | 8 of 9 (4.82) |
| 40 | GFTFDDWAMH | GISWNSGSIGYVGSVK | VGRGGGYFDY | n.d. n.d. n.d. | n.d. | 0 of 9 |
| 41 | GFTFDDQGMH | GISWNSGSIGHADSVK | VGRGGGYFDY | n.d. n.d. n.d. | n.d. | 3 of 9 (3.26) |
| 42 | GFTFDDYAMH | HISWNSGSIGYADSRK | VGRGGGYFDS | n.d. n.d. n.d. | n.d. | 0 of 9 |
| 43 | GFTFDDYAKH | GISWNSGSIGYAVSVK | VGRGGGYFDY | n.d. n.d. n.d. | n.d. | 1 of 9 (4.66) |

Top 4 of the variants detected in all replicates, tightest first:

| CDR-H1 | CDR-H2 | CDR-H3 | log10 Kd, replicates | mean log10 Kd (nM) | signal with controls |
|---|---|---|---|---|---|
| GFTFDDYAMH | GISWNSGSQGYADSVK | VGRGGWYYDY | 1.97 1.98 1.68 | 1.87 | 7 of 9 (4.72) |
| GFTFDDYAMH | GISYNSGSDGYADSVK | VGRGGGYFDA | 1.93 2.22 2.38 | 2.18 | 1 of 9 (3.48) |
| GFTFDDYAMH | GISWNSYSKGYADSVK | VGRGGGYFTY | 2.78 2.67 2.43 | 2.62 | 5 of 9 (4.89) |
| GFTFDDYAMH | GISWNSGSIGYADSVK | VGRGGGYTDY | 4.04 4.19 5.21 | 4.48 | 3 of 9 (4.54) |